Yeast mating assay 1: variants of the scFv Ab-14

Reference: Engelhart et al. 2022, doi:10.1038/s41597-022-01779-4. File: FLAb, binding data.

The target is the same throughout: PDVDLGDISGINAS, from the HR2 region of SARS-CoV-2 spike.

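Variants in AAYL50 differ from the parent at up to three CDR positions; double and triple changes were sampled at random. AlphaSeq pools MATa yeast showing the antibodies with MATalpha yeast showing the peptide. Binding brings cells together so that they mate, and sequencing counts the barcode pairs among the diploids. Each replicate has its own calibration line, from reference interactions of the BCL2 family. The assay was run in three technical replicates.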

Each scFv is VH, a 15-residue (Gly4Ser)3 linker, VL, as in the parent Ab-14, and differs from it in the CDRs of the light chain only.
VH: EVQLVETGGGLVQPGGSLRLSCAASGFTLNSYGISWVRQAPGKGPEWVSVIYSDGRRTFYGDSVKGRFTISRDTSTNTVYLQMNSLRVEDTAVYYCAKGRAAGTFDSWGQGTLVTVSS
VL: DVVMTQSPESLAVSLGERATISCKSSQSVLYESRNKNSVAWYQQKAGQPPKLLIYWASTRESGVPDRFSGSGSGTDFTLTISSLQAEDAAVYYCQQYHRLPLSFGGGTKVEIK

Changes read parent residue, position, new residue, counted from the first residue of the VL shown.
All variants listed here change Q95 of the VL, counted from its first residue.
Values are log10 of the apparent Kd in nM; lower means stronger binding.
The mean shown is taken over the replicates in which the pair was detected.
An entry "no signal" has no value in the source: the pair was not observed among the diploids in any replicate. This suggests poor binding but is not conclusive.
Entries are sorted by rising average, undetected variants last.

Y31D/Q95D: 0.38 (3 of 3 replicates).
K36H/Q95G/R99W: 0.51 (3 of 3 replicates).
V29W/W56R/Q95E: 0.83 (3 of 3 replicates).
S38A/S58N/Q95M: 0.84 (3 of 3 replicates).
K24L/W56A/Q95P: 0.89 (3 of 3 replicates).
N35A/Q95C/H98L: 1.06 (3 of 3 replicates).
Q95I/Y97P/R99M: 1.09 (3 of 3 replicates).
S28Y/Q95E: 1.74 (3 of 3 replicates).
L30A/Q95K/Y97E: 2.01 (3 of 3 replicates).
K36H/Q95A/Q96S: 2.24 (3 of 3 replicates).
R60M/Q95A: 2.25 (3 of 3 replicates).
A57S/S58F/Q95V: 2.57 (3 of 3 replicates).
E61Q/Q95E/S103V: 2.58 (3 of 3 replicates).
K24W/S26N/Q95C: 2.61 (1 of 3 replicates).
S26Q/S58Y/Q95C: 2.68 (3 of 3 replicates).
R34L/A57L/Q95I: 3.17 (1 of 3 replicates).
E32N/Q95F: 3.44 (3 of 3 replicates).
A40I/Q95N/H98A: 3.63 (1 of 3 replicates).
V29A/Y31W/Q95I: 3.70 (1 of 3 replicates).
W56I/Q95P/P101G: 3.71 (1 of 3 replicates).
V29N/S38P/Q95T: 3.93 (2 of 3 replicates).
K24D/Q95V/Y97L: 4.11 (1 of 3 replicates).
E32W/Q95C: 4.17 (1 of 3 replicates).
R34E/Q95C/R99W: 4.20 (3 of 3 replicates).
V29G/V39L/Q95W: 4.39 (1 of 3 replicates).
S38G/W56C/Q95R: 4.75 (1 of 3 replicates).
S58I/Q95H/L100I: 5.28 (1 of 3 replicates).
S38F/T59M/Q95H: no signal (0 of 3 replicates).
Y31D/A57R/Q95F: no signal (0 of 3 replicates).
V39F/Q95E: no signal (0 of 3 replicates).
K36P/A40P/Q95R: no signal (0 of 3 replicates).
S25E/E61R/Q95N: no signal (0 of 3 replicates).
S38Q/Q95T/S103E: no signal (0 of 3 replicates).
V29R/N37I/Q95L: no signal (0 of 3 replicates).
L30R/Q95N/H98T: no signal (0 of 3 replicates).
L30M/A40H/Q95K: no signal (0 of 3 replicates).
A40D/Q95T/Y97C: no signal (0 of 3 replicates).
Q27H/Q95P/P101E: no signal (0 of 3 replicates).
S28W/Q95M/L100T: no signal (0 of 3 replicates).

The first 5 variants above that were never detected:

changes	mean log10 Kd (nM)	seen in
S38F/T59M/Q95H	no signal	0 of 3
Y31D/A57R/Q95F	no signal	0 of 3
V39F/Q95E	no signal	0 of 3
K36P/A40P/Q95R	no signal	0 of 3
S25E/E61R/Q95N	no signal	0 of 3

For reference, the parent read 0.65 as the reference entry and 1.68 as a member of this library.
Three control strains display no target. For library AAYL50, 18% of the pairings with them gave a signal, with a median of 4.19 and one signal in twenty below 2.99, so weak values seen in few replicates may be background.